T1: huCDCP1-his (human, UniProt Q9H5V8 30-667, limits assumed)
T1 construct: also called human CDCP1 antigen; not shown: his tag
T1 sequence (looked up): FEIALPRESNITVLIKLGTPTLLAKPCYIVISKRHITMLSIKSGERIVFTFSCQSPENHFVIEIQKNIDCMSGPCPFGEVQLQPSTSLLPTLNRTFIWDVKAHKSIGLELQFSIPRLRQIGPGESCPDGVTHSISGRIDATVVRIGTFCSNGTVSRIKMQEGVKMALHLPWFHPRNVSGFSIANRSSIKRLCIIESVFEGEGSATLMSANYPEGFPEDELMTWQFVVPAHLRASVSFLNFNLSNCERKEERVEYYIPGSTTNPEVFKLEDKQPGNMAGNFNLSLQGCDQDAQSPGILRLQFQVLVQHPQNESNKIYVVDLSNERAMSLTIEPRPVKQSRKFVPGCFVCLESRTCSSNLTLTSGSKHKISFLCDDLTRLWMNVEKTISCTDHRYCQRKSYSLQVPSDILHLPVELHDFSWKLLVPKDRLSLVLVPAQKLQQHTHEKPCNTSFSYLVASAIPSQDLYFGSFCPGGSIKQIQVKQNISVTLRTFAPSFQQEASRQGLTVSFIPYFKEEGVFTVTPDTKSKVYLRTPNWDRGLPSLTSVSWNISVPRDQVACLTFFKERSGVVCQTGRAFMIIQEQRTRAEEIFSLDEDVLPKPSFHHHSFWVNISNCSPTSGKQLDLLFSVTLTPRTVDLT

T2: HuCDCP1-C (human, UniProt Q9H5V8 30-667)
T2 construct: range 30-667; expressed in HEK-293T, purified by Fc/his tag; also called human CDCP1-C; full-length extracellular domain of human CDCP1; not shown: Fc or his tag
T2 sequence (looked up): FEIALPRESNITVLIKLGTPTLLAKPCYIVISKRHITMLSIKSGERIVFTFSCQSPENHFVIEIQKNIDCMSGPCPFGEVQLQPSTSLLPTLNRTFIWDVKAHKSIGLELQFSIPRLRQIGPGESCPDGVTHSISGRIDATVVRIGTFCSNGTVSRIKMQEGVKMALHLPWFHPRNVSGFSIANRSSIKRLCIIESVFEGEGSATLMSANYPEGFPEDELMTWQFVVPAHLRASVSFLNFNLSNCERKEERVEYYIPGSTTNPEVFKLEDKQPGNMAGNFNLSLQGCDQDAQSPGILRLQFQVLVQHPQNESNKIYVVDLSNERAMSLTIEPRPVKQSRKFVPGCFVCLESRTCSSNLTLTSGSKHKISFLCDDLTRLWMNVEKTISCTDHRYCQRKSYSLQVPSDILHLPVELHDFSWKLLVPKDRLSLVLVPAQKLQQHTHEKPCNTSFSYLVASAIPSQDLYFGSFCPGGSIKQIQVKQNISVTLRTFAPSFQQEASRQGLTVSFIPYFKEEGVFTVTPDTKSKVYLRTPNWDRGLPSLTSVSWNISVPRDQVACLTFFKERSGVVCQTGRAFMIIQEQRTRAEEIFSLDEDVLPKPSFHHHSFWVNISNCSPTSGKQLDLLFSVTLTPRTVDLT

T3: HuCDCP1-B (human, UniProt Q9H5V8 343-667)
T3 construct: range 343-667; expressed in HEK-293T, purified by Fc/his tag; also called human CDCP1-B; membrane-proximal region of CDCP1; not shown: Fc or his tag
T3 sequence (looked up): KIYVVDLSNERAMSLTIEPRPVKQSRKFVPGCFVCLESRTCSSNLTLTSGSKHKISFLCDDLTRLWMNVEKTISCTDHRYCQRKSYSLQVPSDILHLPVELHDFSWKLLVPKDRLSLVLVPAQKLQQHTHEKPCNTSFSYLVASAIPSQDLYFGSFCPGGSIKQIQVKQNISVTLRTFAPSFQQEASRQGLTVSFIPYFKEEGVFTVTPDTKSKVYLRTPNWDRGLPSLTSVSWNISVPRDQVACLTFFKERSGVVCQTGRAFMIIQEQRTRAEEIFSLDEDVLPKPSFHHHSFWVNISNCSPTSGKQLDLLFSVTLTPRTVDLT


Columns and labels:
[1] = biological target: T1, huCDCP1-his; experiment: SPR (Caterra), antigen immobilized
Method: (§1) The candidate antibodies obtained from Example 6 were subjected to gene cloning, constructed into an expression vector for a small amount of expression in CHO cells, and purified with an Fc affinity column (AT Protein A Diamond Plus. No. AA402312). Antibody purity was analyzed by HPLC and determined by Nanodrop. High-throughput affinity assay was carried out for a small amount of antibodies by Caterra. Specifically, human CDCP1 antigen (2 μg/ml) was immobilized to assay antibody binding, and antibodies to be tested (antibodies diluted to the highest concentration of 150 nM, with a 3-fold dilution across 5 concentration points, which were respectively 1.85, 5.55, 16.67, 50, 150 nM) were allowed to flow through the detection chip respectively by Caterra, and data analysis was performed with Kinetics software. At the same time, 2 μg/ml antigen human CDCP1-C and 2 μg/ml human CDCP1-B were used for coating, and the antigen-antibody binding capacity was tested by ELISA for verification.

[2] = biological target: T2, HuCDCP1-C; experiment: ELISA, coated antigen
Method: as §1

[3] = biological target: T2, HuCDCP1-C; experiment: SPR (Caterra), antigen immobilized
Method: as §1, with “The humanized anti-CDCP1” for “The candidate”, “Example 11” for “Example 6”, “into pTT5” for “into an”, “CHO cells (Expi-CHOS: Gibco A29127),” for “CHO cells,”, “Specifically, HuCDCP1-C” for “Specifically, human CDCP1”, “software.” for “software. At the same time, 2 μg/ml antigen human CDCP1-C and 2 μg/ml human CDCP1-B were used for coating, and the antigen-antibody binding capacity was tested by ELISA for verification.”

[4] = biological target: T3, HuCDCP1-B; experiment: ELISA, coated antigen
Method: as §1

Binder	Kd [1] [nM]	EC50 [2] [nM]	Kd [3] [nM]	EC50 [4] [nM]
1CP-130 (antibody, human IgG1, kappa, V domains shown, humanized 3C11, human IgG1 kappa) VH: QVQLVQSGAEVKKPGASVKVSCKASGYNFISYWLHWVRQAPGQGLEWMGGIYPGNTDTTYNQKFKGRVTMTADTSTSTAYMELSSLRSEDTAVYYCIRYDYDRGMDYWGQGTLVTVSS VL: DIQMTQSPSSLSASVGDRVTITCRASEDIYYRLAWYQQKPGKAPKLLISGATALETGVPSRFSGSGSGKDYTLTISSLQPEDIATYYCQHYWNIPWTFGQGTKVEIKR	–	–	11.6	–
SB15 (antibody, V domains shown, single B cell antibody, expressed in CHO) VH: EVKLVESGGGLVKPGGSLKLSCAASGFTFSSYGMSWVRQTPEKRLEWVATISGGINYTYYRDSVEGRFTISRDNAKNNLYLQMSRLRSEDTALYYCARHDRYDGYYYVMDYWGQGTSVTVSS VL: DIQMTQSPSSLSASLGERVSLTCRASQEISGYLTWLQQRPDGTIKRLIYAASTLDSGVPKRFSGSRSGSDYSLTISSLESEDFADYYCLQYASYPYTFGGGTKLEIK	11.6	0.042	–	–
SB18 (antibody, V domains shown, single B cell antibody, expressed in CHO) VH: QVTLKESGPGILQPSQTLSLTCSFSGFSLTTSGMNVGWLRQPSGKGLEWLAHIWWNDDKHSNPVLKSRLTISKDTSNNQAFLKIANVVTADSATYYCARLRDGGFAYWGQGTLVTVSA VL: DIQMTQTTSSLSASLGDRVTISCSASQAISNYLNWYQQKPDGTVKLLIYYTSHLHSGVPSRFSGSGSGTDYSLTISNLEPEDIATYYCQQYSKIPWTFGGGTKLEII	6.99	0.121	–	–
SB11 (antibody, V domains shown, single B cell antibody, expressed in CHO) VH: EVQLQQSGAELVKPGASVKLSCTASGFNIQDTYILWVKQRPEQGLEWIGGIDPANDNTNYGPNFQGKATITADTSSNTAYLQLSSLTSEDSAVYYCAREDAYPWFAYWGQGTLVTVSS VL: DIVLTQSPASLAVSLGQRATISCRASQSVSTSSYSYMHWYQLKPGQPPKLLIKYASNLESGVPARFSGSGSGTDFTLNIHPVEEEDAAIYYCQHNWEIPWTFGGGTRLEIK	0.476	0.038	–	0.035

Now from value to binder:

Kd [1] [nM]	EC50 [2] [nM]	Kd [3] [nM]	EC50 [4] [nM]	Binder
238	–	–	–	SB12 (antibody, V domains shown, single B cell antibody, expressed in CHO) VH: QVQLQQSGAELMKPGASVKISCKATGYTFSRYWVEWVKQRPGHGLEWIGDILPGSDFTNYNEKFKGKATFTADSSSNTAYMQLSSLTSEDSAVYYCARKDYYGNYDYAMDYWGQGTSVTVSS VL: DVQITQSPSYLAASPGEAITINCRTSKSIGKYLAWYQEKPGKTNKLLIYSGSTLQSGIPSRFSGSGSGTDFTLTITSLEPEDFAMYYCQQHDEYPWTFGGGTKLDIK
5.52	0.046	–	–	SB17 (antibody, V domains shown, single B cell antibody, expressed in CHO) VH: QVTLKESGPGILQPSQTLSLTCSFSGFSLSTSGMSVGWIRQPSGKGLEWLAHIWWNDDKYYNPALKTRLTISKDSSNNQIFLKIASVVTADSATYYCARIGYYYGTYALDYWGPGTSVTVSS VL: QIVLTQSPALMTASPGEQVTMTCSASSSVSYIHWYQQKSGTSPKRWIYDASKLASGVPARFSGSGSGTSYSLTISSMEAEDAATYYCQQWSSYPLTFGGGTKLELK
12.4	0.048	–	–	SB13 (antibody, V domains shown, single B cell antibody, expressed in CHO) VH: EVKLVESGGGLVQPGGSLRLSCATSGFTFSDFYMEWVRQPPGKRLEWIAVSRDKTNDYTTEYSASMKGRFIVSRDTSQSILYLQMNALRAEDTAIYYCARDGVYYYGSSYTLDYWGQGTSVTVSS VL: DIVMTQSHKFMSTSVGDRVSITCKASQDVSSSVAWYQQKPGQSPKLLIYWASTRHTGVPDRFTGSGSGTDYTLTISSVQAEDLALYYCQQHYNTPPTFGGGTKLEIK
3.68	0.03	–	–	SB10 (antibody, V domains shown, single B cell antibody, expressed in CHO) VH: QVTLKESGPGILQPSQTLSLTCSFSGFSLSTSGMGVSWFRQPSGKGLEWLAHIYWDDDKRYNPSLKSRLTISKDTSSNQVFLRITNVDTSDTATYYCTREGSADWEALDYWGQGTSVTVSS VL: DVLMTQTPLSLSVSLGDQASISCRSSQTIVYSNGNSYLEWYLQKPGQSPKLLIYKVSNRFSGIPDRFSGSGSGTDFTLKISRVEAEDLGIYYCFQSSHVPWTFGGGTKLEIK
0.497	0.067	–	0.056	SB14 (antibody, V domains shown, single B cell antibody, expressed in CHO) VH: QVQLQQSGNEVVKPGASVKLSCKTSGYTFTNYWLQWVKQRPGQGLEWIGEIFPGTGTTYYNEKFKDQATVTIDTSSSTAYIHLSSLTSEDSAVYFCARTNWEGYYFDYWGQGTTLTVSS VL: ENVLTQSPAIMSASSGEKVTMTCRASSSVRSSYLHWYQQKSGASPKVWIYSTSNLASGVPVRFSGSGSGTSYSLTISSVEAEDAATYYCQQYSGSPSWTFGGGTKLEIK
178	19.6	–	–	SB16 (antibody, V domains shown, single B cell antibody, expressed in CHO) VH: QVQLQQSGPELVRPGVSVRISCKGSGYPFTDYAIHWVKQGHGKNLEWIGVIAPYSDNTGYNQRFKGKATMTVDKSSSTAYMELARLTSEDSAIYYCAAYGNYGYYTMDYWGQGTSVTVSS VL: DIQMTQSTSSLSASLGDRVTITCRASQDITNYLNWYQQKPDGTVKLLIYYTSRLHSGVPSRFSGSGSGTDFSLTISNLEQEDIATYFCQQGNTLPWTFGGGTKLEII

— patent publication US20260250410A1 (SICHUAN HUIYU PHARMACEUTICAL, published 2026)
